## Binding of CDR-mutated scFvs to a peptide of the spike HR2 region

Values reported by Li et al. 2023, doi:10.1038/s41467-023-39022-2 (FLAb copy).

Target: peptide PDVDLGDISGINAS, taken from heptad repeat 2 (HR2) of SARS-CoV-2 spike.

The variants keep the heavy chain, the linker and the frameworks of Ab-14 (scFv order VH, three GGGGS repeats, VL).
VH: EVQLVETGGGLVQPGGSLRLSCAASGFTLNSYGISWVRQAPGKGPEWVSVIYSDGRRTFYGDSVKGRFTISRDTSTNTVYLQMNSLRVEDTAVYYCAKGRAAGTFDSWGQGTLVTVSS
VL: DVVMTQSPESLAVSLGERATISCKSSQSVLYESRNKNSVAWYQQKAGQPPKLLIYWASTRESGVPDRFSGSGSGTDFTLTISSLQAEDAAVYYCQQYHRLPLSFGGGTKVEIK

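Designed CDR sequences, proposed from the first random library and measured here. Their group label is 14L_En_Gen (En: ensemble of fine-tuned language models; Gen: genetic algorithm). The scFvs were displayed on barcoded MATa yeast, the peptide on MATalpha yeast. Mating (16 h, 30 °C) was followed by selection of diploids and sequencing of their barcodes. Read counts were normalised to the haploid input and turned into Kd by a linear fit to BCL2-family pairs of known affinity, for each replicate. There are six technical replicates.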

The parent's light chain CDRs are KSSQSVLYESRNKNSVA, WASTRES, QQYHRLPLS; each variant's own CDRs replace them letter for letter. Affinities are written as log10 Kd with Kd in nM; a lower number is a better binder. The mean shown is taken over the replicates in which the pair was detected. An entry "n.d." has no value in the source: the pair was not observed among the diploids in that replicate. This suggests poor binding but is not conclusive. Background: pairings of all light chain designs with three empty control strains gave a value in 4% of cases (median 2.64, 5th percentile 1.59). Values in that range, when seen in few replicates, are hard to tell from nonspecific mating. The control count says in how many pairings with the empty strains this scFv gave a signal, with their mean in brackets. In the paper, a design with two or fewer of six values counts as a poor binder. The parent sequence was in this pool as ten entries: three were never detected, three once, and four in most replicates, with averages from 0.34 to 2.37. Values of this round are not directly comparable with the first-round values of the same sequences.

CDR-L1,CDR-L2,CDR-L3,"replicates, log10 nM","mean, log10 nM",control signals
MVTQMAMTGMKNKRSVA,NAETREN,QQYHHLPLI,2.32 0.68 1.22 1.03 1.02 1.95,1.37,2 of 18 (3.44)
TITEFMDNLSRNRNNVA,DTSTLGD,QSYDRLPLS,0.99 0.61 0.48 0.33 0.71 1.03,0.69,3 of 18 (3.41)
MVYQATMMGTVTRNSIA,NAQMRPD,QQYHRLPLI,1.09 0.91 2.15 0.57 0.46 0.83,1.00,0 of 18
HITYGMMVHGRHSSSIA,QASTRAK,QQYDRLPLA,n.d. n.d. n.d. n.d. n.d. n.d.,n.d.,0 of 18
KISQMARVGSTHGNSIA,EETTRAK,QQYHRLPLF,0.63 0.40 0.60 0.50 0.45 0.43,0.50,0 of 18
KVSEFMRGLIQRSDSIA,DNETRGA,QQYDRLPLS,1.74 n.d. n.d. n.d. 2.64 2.10,2.16,2 of 18 (2.48)
TISQMTSLFSQTINNVA,EVSTREE,QQYDRLPLM,0.47 0.30 0.32 0.61 0.27 0.63,0.43,1 of 18 (2.90)
KLRAVTGTEKVLGNNVA,EMETRER,QQYNRLPLS,0.31 0.20 0.35 -0.20 0.07 0.19,0.15,0 of 18
KIGMTLNELMHQKNNVA,DLVEREN,QQYFRLPLS,0.36 0.28 0.06 0.00 0.03 0.03,0.13,1 of 18 (2.89)
KISQMVKVGATHNNSIA,EEVTRAK,QQYHRLPLS,1.62 1.35 1.17 1.08 1.42 1.25,1.31,1 of 18 (2.33)
IIDQLMYWGNKHVNSIA,QASQRLN,QQYHHLPLT,2.35 2.31 1.83 1.91 1.54 2.03,2.00,0 of 18
MISQLFNMGQFAINSVA,QASTRNE,QQYDRLPLM,1.36 0.70 n.d. 1.32 1.67 1.08,1.23,0 of 18
TISALYNQATGMRNNVA,NNQTRED,QQYKRLPLS,n.d. 1.23 1.25 2.29 1.81 n.d.,1.65,1 of 18 (2.31)
KLSQLTGHMKMVKNNVA,EMETREN,QQYDRLPLS,1.25 2.07 1.34 1.41 1.60 1.50,1.53,1 of 18 (2.89)
MINQLYNMGQFAINSVA,QASQRNE,QQYDRLPLM,0.72 0.70 0.82 0.59 0.45 0.89,0.70,2 of 18 (2.75)
TISQMTSLFEQSINNVA,EVTTREN,QQYDRLPLI,n.d. n.d. 2.39 3.34 2.31 1.48,2.38,0 of 18
MISQLMNLGQFAINSVA,QASIRNQ,QQYDRLPLV,n.d. n.d. n.d. 2.29 n.d. n.d.,2.29,0 of 18
KVSEFMRGLTQRKDSIA,DNTTRNN,QQYDRLPLS,n.d. n.d. n.d. n.d. n.d. n.d.,n.d.,0 of 18
KLYDMSALTMSNIRNVA,DNSTREA,QQYHRLPLS,0.20 -0.02 0.15 0.07 0.11 0.08,0.10,1 of 18 (2.14)
MISQLYNMGSFAINSVA,QASERNT,QQYDRLPLT,1.66 0.97 2.33 2.10 4.22 2.55,2.31,0 of 18
KLSSYTGHMSVSKNNVA,EMETREE,QQYDRLPLS,0.94 1.61 0.82 1.08 1.88 1.46,1.30,1 of 18 (0.94)
KIGATLNTLMHTKNNVA,DLVMREQ,QQYHRLPLS,0.22 -0.02 0.00 -0.09 -0.14 0.03,0.00,2 of 18 (2.79)
KISQMARVGMTHGNSIA,EEATRAK,QQYHRLPLS,1.31 0.66 0.37 0.94 1.00 0.64,0.82,0 of 18
KISQMIRVGSTASNSIA,EEQTRAK,QQYHRLPLS,n.d. 2.59 n.d. 1.88 2.54 1.55,2.14,0 of 18
KIGMTLNTLMHTKNNVA,DLVMREQ,QQYHRLPLS,0.14 0.27 -0.04 -0.14 -0.07 0.12,0.05,0 of 18
IVSQLMLWGMHVKNSIA,EAQTRLN,QQYDRLPLF,n.d. n.d. n.d. n.d. n.d. n.d.,n.d.,0 of 18
NISHFMDVTAKNINNVA,EMTMREQ,QQYHHLPLS,0.50 -0.36 0.06 -0.01 0.39 0.15,0.12,0 of 18
KIGMTLNTLMQKKNNVA,DLVEREN,QQYFRLPLS,0.37 0.25 0.09 0.41 0.49 0.24,0.31,1 of 18 (3.10)
QLYEMSYELSGKTHSVA,DNSTRGD,QQYFRLPLE,1.04 1.21 0.80 1.64 0.95 1.28,1.15,0 of 18
SLYEMSYELSGKTHSVA,DNSTRGD,QQYFRLPLQ,1.57 1.60 1.70 1.49 1.34 2.25,1.66,1 of 18 (2.90)
MISQIYNMGQFAINSVA,QASIRNA,QQYDRLPLT,1.58 1.19 1.83 1.74 1.79 1.71,1.64,2 of 18 (2.92)

The opening 2 entries, copied out:

| CDR-L1 | CDR-L2 | CDR-L3 | replicates, log10 nM | mean, log10 nM | control signals |
|---|---|---|---|---|---|
| MVTQMAMTGMKNKRSVA | NAETREN | QQYHHLPLI | 2.32 0.68 1.22 1.03 1.02 1.95 | 1.37 | 2 of 18 (3.44) |
| TITEFMDNLSRNRNNVA | DTSTLGD | QSYDRLPLS | 0.99 0.61 0.48 0.33 0.71 1.03 | 0.69 | 3 of 18 (3.41) |